The record followed here is patent US20250388576A1, “PYRIDONOPYRIMIDINE DERIVATIVE AS RSK INHIBITOR AND USE THEREOF” (EAST CHINA NORMAL UNIVERSITY, priority 2022, published 2025).

Amino acid sequences for entries named in this document (tags omitted).
UniProt Q9UK32, whole entry: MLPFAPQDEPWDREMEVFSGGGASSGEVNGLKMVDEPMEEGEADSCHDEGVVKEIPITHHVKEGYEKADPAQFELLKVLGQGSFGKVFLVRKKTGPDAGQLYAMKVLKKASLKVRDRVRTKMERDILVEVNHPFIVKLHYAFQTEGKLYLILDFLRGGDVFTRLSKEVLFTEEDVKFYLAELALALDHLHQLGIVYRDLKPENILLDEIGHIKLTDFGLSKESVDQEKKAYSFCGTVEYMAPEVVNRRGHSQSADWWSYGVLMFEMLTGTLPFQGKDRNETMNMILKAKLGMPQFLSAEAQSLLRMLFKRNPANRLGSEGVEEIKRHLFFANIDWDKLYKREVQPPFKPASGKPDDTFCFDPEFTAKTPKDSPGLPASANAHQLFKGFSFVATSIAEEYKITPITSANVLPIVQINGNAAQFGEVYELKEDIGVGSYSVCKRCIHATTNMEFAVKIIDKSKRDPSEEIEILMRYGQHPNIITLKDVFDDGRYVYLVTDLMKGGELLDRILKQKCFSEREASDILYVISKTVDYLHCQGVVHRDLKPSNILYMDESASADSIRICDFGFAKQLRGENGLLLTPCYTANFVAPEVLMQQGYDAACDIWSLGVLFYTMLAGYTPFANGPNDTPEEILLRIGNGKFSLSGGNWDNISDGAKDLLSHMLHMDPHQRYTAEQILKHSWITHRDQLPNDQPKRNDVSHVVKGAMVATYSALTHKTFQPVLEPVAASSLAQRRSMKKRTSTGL

This test has as its target RSK4 kinase (Homo sapiens (Human), UniProt Q9UK32). Description: In vitro enzyme activity assay (Kinase-Glo), RSK4. The class given is biochemical. The following applies: 10 μM ATP, 30° C., 40 minutes. On the technique in general: Kinase-Glo reads ATP consumption through a luciferase reaction.

For `Cc1cc(=O)n(C2CCC(F)(F)C2)c2nc(Nc3ccc4[nH]ncc4c3)ncc12` (single isomer, unassigned) [Compound 005-1], the IC50 stood at 11 ± 1 nM.

Molecule `Cc1cc(=O)n(C2CCC(F)(F)C2)c2nc(Nc3ccc4[nH]ncc4c3)ncc12` (single isomer, unassigned) [Compound 005-2] returned an IC50 of 6 ± 1 nM. This IC50 is about 1.8-fold lower than that of the molecule before.

A word on the IC50: it is the concentration needed to halve the response being measured.
